DT40 TDP1 CPT – growth inhibition of DT40 Tdp1-/-;hTDP1 cells with camptothecin (screen for TDP1 inhibitors). chicken DT40 Tdp1-/-;hTDP1 cells + 20 nM CPT, ATP luminescence, 48 h. Potency, µM (highest dose often 46.2 µM), for the others: at the top dose activity change, negative = growth inhibition, actives largely listed as inhibitors. hit rate 12% among 420,000; also: potency is read from the fitted curve at half-maximal effect; % is scaled to controls: 0 for no effect and ±100 for the full control effect; nearly all actives have a fitted effect of over 55% in size
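Chicken DT40 Tdp1-/- cells complemented with human TDP1, 400 cells/well, exposed to compounds plus 20 nM camptothecin for at least 48 h at 37 C; viability read as ATP content by CellTiter-Glo luminescence.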
TDP1 block – TDP1 (human) enzyme inhibition | Potency, µM (series often up to 130 µM), for inactives: top-dose activity change, negative = inhibition, most hits filed as inhibitors | hit rate 0.28% among 350,000 | recombinant TDP1, AlphaScreen DNA substrate cleavage | AID 485290 | Q9NUW8; also: potency is read from the fitted curve at half-maximal effect; % is scaled to controls: 0 for no effect and ±100 for the full control effect; nearly all actives have a fitted effect of over 40% in size
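Here, a 5' biotin and 3' phosphotyrosine-FITC DNA oligonucleotide reports Tdp1 activity: intact substrate bridges AlphaScreen beads, while cleavage leaves a 3' phosphate and drops signal. All incubations at room temperature.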
uPA generation – inhibitors of cell surface uPA generation; Potency, µM (titrated, usually from 38.3 µM), without a hit: at the highest dose activity change, negative = inhibition, hits mostly inhibitors; hit rate 0.31% among 330,000; AID 540303; cell surface uPA generation assay, qHTS; active = well fitted inhibition curve with a large enough effect; inconclusive = small, poorly fitted or top-dose-only effect; inactive = no such curve, though single readings can be large or run the other way; tested in mouse RAW 264.7 cells; also: potency is read from the fitted curve at half-maximal effect; % is scaled to controls: 0 for no effect and ±100 for the full control effect; nearly all actives have a fitted effect of over 55% in size
DT40 TDP1 no CPT – qHTS for Inhibitors of human tyrosyl-DNA phosphodiesterase 1 (TDP1): qHTS in cells in absence of CPT. DT40 Tdp1-/- hTDP1 cells, no CPT, ATP luminescence, 48 h. Potency, µM (series often up to 46.2 µM), inactives show at the highest dose activity change, negative = growth inhibition, usual class: inhibitors. hit rate 15% among 420,000. AID 686978, 2013; also: potency is read from the fitted curve at half-maximal effect; % is scaled to controls: 0 for no effect and ±100 for the full control effect; nearly all actives have a fitted effect of over 55% in size
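Stably hTDP1-transfected Tdp1-null chicken DT40 cells were treated with library compounds minus camptothecin and grown for at least 48 hr at 37 °C, after which cellular ATP was quantified by luminescence.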
miR-21 FLuc – raises the signal of a miR-21 reporter | HeLa miR-21 FLuc reporter, luciferase, 48 h | Potency, µM (doses to about 38.3 µM), without a hit: at the top dose reporter change, positive = more light | 340,000 tested, under 10 active | AID 2288; active = well fitted rising curve with a large enough effect; inconclusive = small, poorly fitted or top-dose-only effect; inactive = no such curve, though single readings can be large or run the other way;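 note: % of control where 0% means no effect; miR-21 action dims this reporter so a rising signal means less miR-21 action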
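HeLa miR-21-FLuc reporter line, endogenous miR-21; 2000 cells/well in DMEM/10% FBS; compound titration up to ~40uM final, 48 h, 37 degree Celsius; luciferase detection reagent, 15 min lysis, CCD luminescence.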
Starred values were filed as active, the others as inactive; ? = inconclusive; . = not tested or not shown; [ ] = remark or other dose. In the library only some 16% were active in any assay of this set; here they are far more common. Unless noted, calls follow the shape of the dose curve; as a rule, active = well fitted curve in the direction sought with a large enough effect; inconclusive = small, poorly fitted or top-dose-only effect, or another doubt; inactive = no such curve, though single readings can be large; an effect the other way counts as inactive or inconclusive.

| cpd | SMILES | TDP1 block | uPA generation | miR-21 FLuc | DT40 TDP1 no CPT | DT40 TDP1 CPT |
| --- | --- | --- | --- | --- | --- | --- |
| 1 | COc1ccc(/C=N\Nc2ccc([N+](=O)[O-])cc2[N+](=O)[O-])c(C(=O)O)c1OC | 8% | 2% | 0% | -23% | -28% |
| 2 | COc1cccc(C(C)=NNc2ccc([N+](=O)[O-])cc2[N+](=O)[O-])c1OC | . | . | . | 21µM* | ? |
| 3 | CC(Cc1ccccc1)=NNc1ccc([N+](=O)[O-])cc1[N+](=O)[O-] | . | 3% | . | 7.3µM* | 16µM* |
| 4 | CCOc1ccc(S(=O)(=O)c2c(C(=O)c3ccc(C)cc3)cnc3cc4c(cc23)OCCO4)cc1 | 5% | 4% | -18% | -26% | -28% |
| 5 | Cc1ccc(C(=O)c2cnc3cc4c(cc3c2S(=O)(=O)c2ccccc2)OCCO4)cc1 | 1% | -12% | -47% | 23µM* | 18µM* |
| 6 | COc1ccc(S(=O)(=O)c2c(C(=O)c3ccc(C)c(C)c3)cnc3ccc(C)cc23)cc1 | 7% | . | 11% | 6.5µM* | 7.3µM* |
| 7 | CCc1ccc(C(=O)c2cnc3ccc(F)cc3c2S(=O)(=O)c2ccccc2)cc1 | 4% | . | ? | 5.8µM* | 5.2µM* |
| 8 | COc1ccc(C(=O)c2cn[nH]c2-c2cc(C)ccc2O)cc1 | . | -8% | 3% | -9% | -28% |
| 9 | COc1ccc([C@H]2CC(=O)C[C@@H](CCn3cc(C(C)C)nn3)O2)cc1 | . | . | . | 0% | -8% |
| 10 | O=C(O)CC(NC(=S)NCc1ccccc1)C(=O)O (stereo not drawn) | 3% | 0% | 9% | ? | -45% |
| 11 | Cc1nc2c(c(C)c1CCC(=O)Nc1ccc(F)cc1)c(=O)n(C)c(=O)n2C | 3% | . | 0% | 13µM* | ? |
| 12 | CCc1nc(SCC(=O)Nc2cccc(C(F)(F)F)c2)c2c(=O)n(C)c(=O)n(C)c2n1 | 4% | 7% | 9% | 9.2µM* | ? |
| 13 | COc1ccc(NC(=O)CCc2c(C)nc3c(c2C)c(=O)n(C)c(=O)n3C)cc1OC | -2% | . | 1% | ? | 11% |
| 14 | Cc1nc2c(c(C)c1CCC(=O)Nc1cccc(C(F)(F)F)c1)c(=O)n(C)c(=O)n2C | 0% | . | 2% | 16µM* | ? |
| 15 | CCc1nc(SCC(=O)Nc2ccc(F)cc2F)c2c(=O)n(C)c(=O)n(C)c2n1 | 2% | 13% | -1% | ? | ? |
| 16 | Cc1ccccc1NC(=O)C1C2CC/C=C\CCC21 (stereo not drawn) | 5% | 0% | -14% | -33% | -1% |
| 17 | CC(C)(C)OC(=O)Cc1nnc(-c2nc3ccccc3[nH]2)o1 | -12% | . | . | . | . |
| 18 | Cc1ccc2[nH]c(=O)cc(C(=O)OC(C)C)c2c1 | 4% | 3% | -8% | ? | 13% |
| 19 | CCN(CC)S(=O)(=O)c1ccc(/C=C/C(=O)N(c2ccccn2)C2CCCCC2)cc1 | 5% | -3% | -1% | 12µM* | ? |
| 20 | O=C(/C=C/c1ccccc1Cl)N(c1ccccn1)C1CCCCC1 | 3% | 0% | 12% | 16µM* | ? |
| 21 | CC1CC(C)CN(C(=O)COC(=O)c2nccnc2N)C1 (stereo not drawn) | -1% | -1% | . | 20% | -26% |
| 22 | Cc1ccc2nc(-c3ccco3)c(CC(C)(C)C)n2c1 | . | . | . | 9.2µM* | 10µM* |
| 23 | COc1ccccc1Cc1c(-c2ccco2)nc2ccc(Br)cn12 | . | . | . | 21µM* | 10µM* |
| 24 | COc1ccc(Nc2c(-c3ccco3)nc3ccc(C)cn23)cc1 | 8% | 10% | -29% | -15% | -21% |
| 25 | COc1ccccc1Cc1c(C2CCCCC2)nc2cc(C)c(Br)c(C)n12 | . | . | . | -28% | -21% |
| 26 | COc1ccccc1Cc1c(-c2ccco2)nc2ccc(Cl)cn12 | . | . | . | 23µM* | 16µM* |
| 27 | Clc1ccc2nc(-c3ccco3)c(Cc3ccccc3)n2c1 | . | . | . | ? | 16µM* |
| 28 | CCc1nc2ccc(C(=O)NCCCN3CCCC3=O)cn2c1N(CC)C(C)=O | . | . | . | -8% | 2% |
| 29 | Cc1ccc(S(=O)(=O)N2CCCC2C(=O)NCc2ccccc2F)cc1 (stereo not drawn) | -1% | 4% | 0% | 8% | 6% |
| 30 | CCOc1ccc(NC(=O)Cn2cc(S(=O)(=O)N3CCN(c4ccccc4F)CC3)c3ccccc3c2=O)cc1 | 5% | . | -23% | -8% | 0% |
| 31 | COc1ccc(S(=O)(=O)Nc2cc3c4c(c2)CCC(=O)N4CCC3)cc1C | -1% | -4% | . | ? | 16µM* |
| 32 | COc1ccc(S(=O)(=O)Nc2cc3c4c(c2)CCC(=O)N4CCC3)cc1 | 0% | -2% | . | -18% | -24% |
| 33 | Cc1ccc(NS(=O)(=O)c2cc3c4c(c2)CC(=O)N4CCC3)cc1C | 2% | -1% | -5% | -5% | 13µM* |
| 34 | O=C(COC(=O)CNC(=O)c1ccccc1Cl)NC1CCCC1 | 2% | 3% | . | -3% | -1% |
| 35 | COc1ccccc1Cc1c(-c2cccc(Cl)c2)nc2ccc(C)cn12 | . | . | . | 15µM* | 18µM* |
| 36 | Cc1ccc2nc(-c3cccc(Br)c3)c(Cc3ccccc3C(F)(F)F)n2c1 | . | . | . | ? | -29% |
| 37 | COc1ccccc1Cc1c(-c2ccc(C)cc2)nc2ccc(Cl)cn12 | . | . | . | 0.46µM* | ? |
| 38 | COc1ccc(Cc2c(-c3ccc(C)cc3)nc3ccc(Cl)cn23)c(C)c1 | . | . | . | 23µM* | 23µM* |
| 39 | COc1ccc(Cc2c(-c3ccc(F)cc3)nc3ccc(Br)cn23)c(C)c1 | . | . | . | ? | -29% |
| 40 | COc1ccccc1Cc1c(-c2ccc(C#N)cc2)nc2ccc(C)cn12 | . | . | . | 18µM* | ? |
| 41 | O=C(CN1CCCN(Cc2ccc(Cl)cc2)S1(=O)=O)Nc1ccccc1F | 0% | . | 2% | ? | ? |
| 42 | Cc1ccc2nc(-c3cccc(Cl)c3)c(Cc3ccccc3)n2c1 | . | . | . | 16µM* | 21µM* |
| 43 | O=C(Nc1ccc(F)cc1)c1cc(S(=O)(=O)N2CCOCC2)cs1 | 5%[56.1 µM] | -7% | 7% | ? | 0% |
| 44 | O=C(Nc1ccc(F)cc1)c1cc(S(=O)(=O)Nc2ccc(F)cc2)cs1 | -3% | -1% | 23% | 29µM* | ? |
| 45 | COc1ccc(NC(=O)c2cc(S(=O)(=O)Nc3ccc(OC)cc3)cs2)cc1 | 1% | -11% | 14% | 29µM* | ? |
| 46 | COc1ccc(NS(=O)(=O)c2csc(C(=O)N3CCCC3)c2)cc1 | 1% | -6% | 1% | ? | -28% |
| 47 | Cc1nn(Cc2ccc(Cl)cc2)c(=O)n1N(C)c1ncc(C(F)(F)F)cc1Cl | 2% | -2% | -3% | 21µM* | 21µM* |
| 48 | Cc1nn(Cc2ccc([N+](=O)[O-])cc2)c(=O)n1N(C)c1ncc(C(F)(F)F)cc1Cl | 7% | -5% | -10% | 11µM* | ? |
| 49 | CN(C)c1ccc(C(=O)n2nnc3ccccc32)cc1 | 2% | -19% | -9% | ? | 23µM* |
| 50 | CC(C)c1ccc(/C=C/C(=O)n2nnc3ccccc32)cc1 | -1% | 2% | -9% | ? | 16µM* |
| 51 | CC(C)c1ccc(/C=C/C(=O)N2CCCCCC2)cc1 | 5% | -14% | -39% | -4% | -27% |

A second format for some results above.
Screens in order – TDP1 block, uPA generation, miR-21 FLuc, DT40 TDP1 no CPT, DT40 TDP1 CPT
38) COc1ccc(Cc2c(-c3ccc(C)cc3)nc3ccc(Cl)cn23)c(C)c1
  ., ., ., 23µM*, 23µM*
39) COc1ccc(Cc2c(-c3ccc(F)cc3)nc3ccc(Br)cn23)c(C)c1
  ., ., ., ?, -29%
40) COc1ccccc1Cc1c(-c2ccc(C#N)cc2)nc2ccc(C)cn12
  ., ., ., 18µM*, ?
41) O=C(CN1CCCN(Cc2ccc(Cl)cc2)S1(=O)=O)Nc1ccccc1F
  0%, ., 2%, ?, ?
42) Cc1ccc2nc(-c3cccc(Cl)c3)c(Cc3ccccc3)n2c1
  ., ., ., 16µM*, 21µM*
43) O=C(Nc1ccc(F)cc1)c1cc(S(=O)(=O)N2CCOCC2)cs1
  5%[56.1 µM], -7%, 7%, ?, 0%

From PubChem BioAssay
